Test results taken from publication PMC9148506, “Engineering Saccharomyces cerevisiae for production of the capsaicinoid nonivamide” (2022).

The chains behind the UniProt entries cited, without tags or fusion partners. Where a name states a change or a piece, a line headed by the entry shows the natural chain unless it says otherwise. Residues count along the entry.
UniProt A0A2G3D6U1: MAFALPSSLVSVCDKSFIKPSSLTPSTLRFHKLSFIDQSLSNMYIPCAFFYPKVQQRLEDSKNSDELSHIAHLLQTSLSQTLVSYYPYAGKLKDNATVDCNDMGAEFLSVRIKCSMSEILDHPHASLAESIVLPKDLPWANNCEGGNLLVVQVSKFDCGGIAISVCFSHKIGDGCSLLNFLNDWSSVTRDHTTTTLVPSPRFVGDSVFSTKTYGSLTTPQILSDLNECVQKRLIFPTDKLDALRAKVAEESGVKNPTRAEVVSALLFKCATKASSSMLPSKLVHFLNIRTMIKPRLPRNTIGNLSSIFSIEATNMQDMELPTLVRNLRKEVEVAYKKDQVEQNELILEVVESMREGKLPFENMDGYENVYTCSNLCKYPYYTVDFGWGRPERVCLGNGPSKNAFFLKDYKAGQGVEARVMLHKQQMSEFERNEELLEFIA
UniProt Q5D8C0, 1-245: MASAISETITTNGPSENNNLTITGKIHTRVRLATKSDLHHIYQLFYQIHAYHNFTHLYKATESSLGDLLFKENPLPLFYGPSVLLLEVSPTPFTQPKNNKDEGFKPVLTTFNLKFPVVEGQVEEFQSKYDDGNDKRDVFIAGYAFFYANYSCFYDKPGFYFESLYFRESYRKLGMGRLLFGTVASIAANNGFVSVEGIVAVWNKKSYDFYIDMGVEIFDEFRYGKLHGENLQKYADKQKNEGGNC
UniProt Q8RXB8, 1-231: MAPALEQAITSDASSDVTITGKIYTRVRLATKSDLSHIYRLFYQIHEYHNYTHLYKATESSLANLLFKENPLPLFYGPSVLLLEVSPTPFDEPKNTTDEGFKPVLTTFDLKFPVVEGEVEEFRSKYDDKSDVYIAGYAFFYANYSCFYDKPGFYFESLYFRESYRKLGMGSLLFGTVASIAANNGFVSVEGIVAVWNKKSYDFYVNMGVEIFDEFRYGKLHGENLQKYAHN

Assays:
[1] = biological target: AT3 (Pun1) (Capsicum chinense, UniProt A0A2G3D6U1); experiment: whole-cell bioconversion in yeast, HPLC and LC-MS/MS of nonivamide; conditions: AT3 alone (native yeast CoA ligase) or with ACS; nonanoic acid supplied; 30 °C, pH 6.5
[2] = biological target: CaAT (Capsicum annuum, UniProt Q5D8C0); experiment: whole-cell bioconversion in yeast, HPLC of nonivamide; conditions: co-expressed CoA ligase (PhCL, IpfF or ACS); nonanoic acid supplied; 30 °C, pH 6.5
[3] = biological target: SlAT (Solanum lycopersicum, UniProt Q8RXB8); experiment: as above; conditions: co-expressed CoA ligase (PhCL, IpfF or ACS); nonanoic acid supplied; 30 °C, pH 6.5

Row | SMILES | whole-cell bioconversion in yeast, HPLC and LC-MS/MS of nonivamide [1] | whole-cell bioconversion in yeast, HPLC of nonivamide [2] | whole-cell bioconversion in yeast, HPLC of nonivamide [3]
1 | CCCCCCCCC(=O)NCc1ccc(O)c(OC)c1 | demonstrating the amide-forming activity of AT3 and ACS in yeast | most successful NAT in yeast for the formation of nonivamide in all combinations | SlAT from tomato to efficiently catalyse the formation of nonivamide in yeast
2 | COc1cc(CN)ccc1O | amount detected for TMBNM007 (plasmid AT3) was significantly higher than the nonivamide produced | CaAT enzyme was shown to be the most successful NAT in yeast | 
